The source of these data is patent publication US12312328B2, “Pyrazoline dihydroquinolones, pharmaceutical compositions, and uses” (Emory University, priority 2013, dated 2025).

Amino acid sequences for entries named in this document (tags omitted). Residues count along the entry.
UniProt Q62645, 28-1323: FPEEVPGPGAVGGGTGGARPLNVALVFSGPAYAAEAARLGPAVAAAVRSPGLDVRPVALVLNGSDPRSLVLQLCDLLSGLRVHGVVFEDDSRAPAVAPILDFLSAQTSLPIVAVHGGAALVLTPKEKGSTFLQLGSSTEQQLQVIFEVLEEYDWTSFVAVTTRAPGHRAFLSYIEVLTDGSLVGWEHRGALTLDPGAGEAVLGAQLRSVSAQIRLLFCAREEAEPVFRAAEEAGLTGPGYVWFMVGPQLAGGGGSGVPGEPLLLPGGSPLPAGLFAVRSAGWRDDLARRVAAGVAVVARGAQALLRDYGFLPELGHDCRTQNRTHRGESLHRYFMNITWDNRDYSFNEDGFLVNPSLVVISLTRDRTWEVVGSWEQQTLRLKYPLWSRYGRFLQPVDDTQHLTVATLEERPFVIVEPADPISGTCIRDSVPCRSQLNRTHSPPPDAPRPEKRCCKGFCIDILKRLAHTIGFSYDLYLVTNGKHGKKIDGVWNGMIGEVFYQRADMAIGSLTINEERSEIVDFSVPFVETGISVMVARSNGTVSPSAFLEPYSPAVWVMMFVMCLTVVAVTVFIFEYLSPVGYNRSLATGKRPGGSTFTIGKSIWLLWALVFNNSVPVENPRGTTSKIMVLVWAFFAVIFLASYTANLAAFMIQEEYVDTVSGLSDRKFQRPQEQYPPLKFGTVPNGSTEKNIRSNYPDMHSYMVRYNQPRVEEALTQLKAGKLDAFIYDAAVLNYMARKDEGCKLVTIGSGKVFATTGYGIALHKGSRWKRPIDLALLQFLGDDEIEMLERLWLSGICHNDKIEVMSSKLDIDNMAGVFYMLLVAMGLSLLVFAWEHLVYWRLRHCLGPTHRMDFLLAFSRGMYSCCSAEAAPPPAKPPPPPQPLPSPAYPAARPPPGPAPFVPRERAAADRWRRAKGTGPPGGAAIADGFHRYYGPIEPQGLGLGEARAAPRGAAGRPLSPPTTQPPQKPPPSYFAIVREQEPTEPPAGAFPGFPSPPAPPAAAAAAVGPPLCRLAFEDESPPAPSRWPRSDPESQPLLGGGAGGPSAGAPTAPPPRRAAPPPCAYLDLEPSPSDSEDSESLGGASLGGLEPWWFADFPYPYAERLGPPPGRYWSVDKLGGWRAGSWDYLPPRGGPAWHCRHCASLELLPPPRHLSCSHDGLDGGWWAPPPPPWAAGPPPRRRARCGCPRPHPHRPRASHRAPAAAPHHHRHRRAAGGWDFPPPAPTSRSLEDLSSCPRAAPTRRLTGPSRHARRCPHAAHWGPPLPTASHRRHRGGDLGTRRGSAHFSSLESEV

The target of this experiment is GluN1/GluN2D receptors (Rattus norvegicus, UniProt P35439+Q62645). Briefly: Whole-cell patch clamp recordings of GluN1/GluN2D receptors expressed in HEK293 cells. In kind it is cell-based. (In patch-clamp work, channel activity is measured electrically.)

For the molecule `O=C(O)/C=C/C(=O)N1N=C(c2c(-c3ccc(Br)cc3)c3ccccc3[nH]c2=O)CC1c1ccc(Cl)cc1` (racemic) [Compound 997-33, (E)-4-(3-(4-(4-Bromophenyl)-2-oxo-1,2-dihydroquinolin-3-yl)-5-(4-chlorophenyl)-4,5-dihydro-1H-pyrazol-1-yl)-4-oxobut-2-enoic acid], the kon (usually the rate constant with which the complex forms) (onset of inhibition, read-out: association rate kON) came to 123000 M⁻¹ s⁻¹. In addition, under “y-intercept of linear regression, read-out: dissociation rate kOFF”, the off-rate (koff) (as a rule, the rate constant with which the complex falls apart) came to 0.122 s⁻¹.
